Source: PubChem BioAssay (ICCB-Longwood Screening Facility, Harvard Medical School)
The sample as a whole holds a higher share of hits than the screen did.
HCMV UL50-53 inh = disrupts HCMV UL50-UL53 complex binding; HTRF UL50-UL53 interaction, normalized percent inhibition; inhibition, % (concentration not given with the values); actives 0.15% (n = 190,000); in the data active means inhibition above about 27%, passing the limit was not always enough
GIV Gai3 FP = blocks GIV peptide binding to rat Galpha-i3. P08753. Galpha-i3/FITC-GIV peptide fluorescence polarization, 90 min; stronger effect = lower value; scaled: aluminum fluoride 0%, vehicle 100%. percent of control (FP), % (test concentration not listed). 0.42% of 210,000 active. AID 1224905;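 active = replicate mean at 85% of control or lower, very high polarization wells dropped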;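 also: wells of about 15 µL received 100 nL stock; the first replicate is given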
GIV-Gai FP conf = confirmation of inhibitors of GIV binding to rat Galpha-i3; fluorescence polarization, mP at 100 µM; AID 1259350; FITC-GIV peptide binding to Galphai3, fluorescence polarization; active compounds read low; shares compounds with GIV Gai3 FP; actives 38% (n = 580);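 active means inhibition score of 15 or more, meaning 100 minus mean polarization as percent of control over three replicates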;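 further: lower mP means peptide displaced from Galphai3 so more inhibition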
GIV Gai AS conf = GIV-Galpha-i3 inhibition, AlphaScreen confirmation. AlphaScreen counts at 100 µM. AID 1259351. shares compounds with GIV Gai3 FP. actives 39% (n = 580). AlphaScreen Galphai3-GIV binding, purified proteins, 90 min; active compounds read low;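 active means inhibition score at or above a set limit, where the score is 100 minus the three-replicate mean percent of control signal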
* = called active by the depositor; / = not tested or not shown; ! = not active in a repeat.

Compound | HCMV UL50-53 inh | GIV Gai3 FP | GIV-Gai FP conf | GIV Gai AS conf
CCCNc1ccc(-c2nc(-c3ccco3)no2)cc1[N+](=O)[O-] | -12 | 96 | / | /
O=C(Nc1ccc(F)cc1)c1nnc(CNC(=O)C2CCC2)s1 | / | 106 | / | /
O=C(N=Nc1c2ccccc2c2nc3no[nH]c3nc12)c1ccccc1O | -10 | 77* | 66 | 12405*
O=C(N=Nc1c(O)[nH]c(=O)[nH]c1=O)c1ccccn1 | -19 | 105 | / | /
N#CC1=C(N)n2ncnc2NC1c1ccc(F)cc1 (stereo not given) | / | 131 | / | /
Fc1ccc(C2Oc3ccccc3C3=C2C(c2cccs2)n2ncnc2N3)cc1 (stereo not given) | / | 100 | / | /
COc1cccc(-c2nc(-c3ccc(-c4ccccc4)cc3)c(-c3ccc(-c4ccccc4)cc3)[nH]2)c1 | / | 106 | / | /
Oc1ccc2ccccc2c1C=NCc1cccnc1 | -8 | 5.4* | 24* | 5898*
Oc1ccc2ccccc2c1C=NCc1cn2ccsc2n1 | 20 | / | / | /
CCOC(=O)c1[nH]nc2c1COc1ccccc1-2 | / | 106 | / | /
COC(=O)C1=C(C)NC2=C(C(=O)CC(c3ccc(N(C)C)cc3)C2)C1c1ccco1 (stereo not given) | / | 97 | / | /
COc1ccc(OC)c(NC(=O)Nc2ccc(-c3nc4ccccc4s3)cc2)c1 | / | 95 | / | /
CCOc1ccc(NC(=O)c2ccc3[nH]c(C)cc(=O)c3c2)cc1 | -7 | 98 | / | /
Cc1ccc(NC(=O)c2ccc3[nH]c(C)cc(=O)c3c2)cc1 | -1 | 86 | 80 | 29554
CC(Oc1cccc2c1CCN(C)C2=O)c1ccccc1 (stereo not given) | 7 | 103 | / | /
CN1CCN(NC(=O)Cc2ccccc2Cl)CC1 | -2 | 106 | / | /
O=C(Cc1ccccc1Cl)NC1(O)C(=O)c2ccccc2C1=O | 31 | 70* | 59 | 49874
Cc1ccc(-n2c(/C=C/c3c(C)n(C)c4ccccc34)nc3ccccc3c2=O)cc1 | -24 | 88 | 76 | 36423
Cn1cc(/C=C/c2nc3ccccc3c(=O)n2-c2ccc([N+](=O)[O-])cc2)c2ccccc21 | -20 | 102 | / | /
COc1cc(OC)c(S(=O)(=O)N(C)c2ccccc2)cc1S(=O)(=O)N(C)c1ccccc1 | 5 | 108 | / | /
COc1ccc(OC)c(NC(=O)N2CCN(c3nc4ccccc4n4cccc34)CC2)c1 | / | 98 | / | /
COc1ccc(Cl)cc1NC(=O)N1CCN(c2nc3ccccc3n3cccc23)CC1 | / | 83* | 77 | 24336
Cc1[nH]nc2oc(=O)c(CC(=O)O)c(C)c12 | 65 | 84* | 59* | 27884
Cc1[nH]nc2oc(=O)c(Cc3c(F)cccc3Cl)c(C)c12 | -8 | 100 | / | /
N#Cc1nc(-c2ccc(S(=O)(=O)N3CCCC3)cc2)oc1N1CCCC1 | -16 | 100 | / | /
O=C(NCc1cccs1)C(Cc1ccccc1)NS(=O)(=O)c1cccc2nsnc12 (stereo not given) | -94 | 104 | / | /
CCN(CC)C(=O)C12CC3CCC(CC(C3)C1)C2 | / | 104 | / | /
C/C(=N/N1CCN(c2ccccc2)CC1)c1ccccc1 | -22 | 85* | 79 | 33751
C/C=C(\C)CN1CCN(c2ccccc2)CC1 | 10 | 108 | / | /
O=C(O)c1cnc(N2CCC(Cc3ccccc3)CC2)c(NS(=O)(=O)c2ccccc2)c1 | -23 | 99 | / | /

Filtered by structure, the compounds so far with fluorine (4)
Compound | HCMV UL50-53 inh | GIV Gai3 FP | GIV-Gai FP conf | GIV Gai AS conf
O=C(Nc1ccc(F)cc1)c1nnc(CNC(=O)C2CCC2)s1 | / | 106 | / | /
N#CC1=C(N)n2ncnc2NC1c1ccc(F)cc1 (stereo not given) | / | 131 | / | /
Fc1ccc(C2Oc3ccccc3C3=C2C(c2cccs2)n2ncnc2N3)cc1 (stereo not given) | / | 100 | / | /
Cc1[nH]nc2oc(=O)c(Cc3c(F)cccc3Cl)c(C)c12 | -8 | 100 | / | /

(cont.)
Compound | HCMV UL50-53 inh | GIV Gai3 FP | GIV-Gai FP conf | GIV Gai AS conf
O=C(O)c1cnc(N2CCOCC2)c(NS(=O)(=O)c2ccccc2)c1 | -29 | 49* | 36* | 30970
CCNc1nc(C)cc(Nc2ccc(NC(=O)CC)cc2)n1 | -16 | 108 | / | /
COC(=O)C(Cc1ccccc1)NC(=O)c1c(-c2ccccc2)noc1C (stereo not given) | 5 | / | / | /
CC1=C(C#N)C(=O)N(C)C(=O)/C1=C/c1ccc(-c2cccc(Cl)c2C)o1 | -52 | 106 | / | /
C=CCN1C(=O)C(C#N)=C(C)/C(=C\c2ccc(-c3cccc(C(=O)O)c3)o2)C1=O | -6 | 83* | 79 | 2591*
CC1=C(C#N)C(=O)N(CCc2ccccc2)C(=O)/C1=C\c1ccc(-c2cccc(Cl)c2)o1 | -20 | 101 | / | /
CC1=C(C#N)C(=O)N(C)C(=O)/C1=C/c1ccc(-c2ccccc2C(=O)O)o1 | -28 | 84* | 68 | 2072*
COc1ccc(C2=NN(C(C)=O)C(c3cc4ccc(C)cc4nc3Cl)C2)cc1 (stereo not given) | 2 | 107 | / | /
O=S(=O)(c1ccccc1Cl)N1CCn2cccc2C1c1ccc(F)c(F)c1 (stereo not given) | / | 103 | / | /
COC(=O)c1c(-c2ccc(Cl)cc2)noc1N1CCN(C)CC1 | -27 | 99 | / | /
COC(=O)c1c(-c2ccc(Cl)cc2)noc1N1CCN(c2ccccc2F)CC1 | -2 | 71*! | 64 | 42746
CNC(=O)CN1CCC(c2nc3ccccc3[nH]2)CC1 | -28 | 106 | / | /
